Laboratory results taken from patent publication US9512114B2, “Substituted aminopyrimidine compounds and methods of use” (Calitor Sciences, LLC, priority 2013, dated 2016).

Sequences of proteins named here, by UniProt entry; tags and fusion partners are left off. A change or cut given only in a name is not applied to a line headed by its entry.
UniProt O00329: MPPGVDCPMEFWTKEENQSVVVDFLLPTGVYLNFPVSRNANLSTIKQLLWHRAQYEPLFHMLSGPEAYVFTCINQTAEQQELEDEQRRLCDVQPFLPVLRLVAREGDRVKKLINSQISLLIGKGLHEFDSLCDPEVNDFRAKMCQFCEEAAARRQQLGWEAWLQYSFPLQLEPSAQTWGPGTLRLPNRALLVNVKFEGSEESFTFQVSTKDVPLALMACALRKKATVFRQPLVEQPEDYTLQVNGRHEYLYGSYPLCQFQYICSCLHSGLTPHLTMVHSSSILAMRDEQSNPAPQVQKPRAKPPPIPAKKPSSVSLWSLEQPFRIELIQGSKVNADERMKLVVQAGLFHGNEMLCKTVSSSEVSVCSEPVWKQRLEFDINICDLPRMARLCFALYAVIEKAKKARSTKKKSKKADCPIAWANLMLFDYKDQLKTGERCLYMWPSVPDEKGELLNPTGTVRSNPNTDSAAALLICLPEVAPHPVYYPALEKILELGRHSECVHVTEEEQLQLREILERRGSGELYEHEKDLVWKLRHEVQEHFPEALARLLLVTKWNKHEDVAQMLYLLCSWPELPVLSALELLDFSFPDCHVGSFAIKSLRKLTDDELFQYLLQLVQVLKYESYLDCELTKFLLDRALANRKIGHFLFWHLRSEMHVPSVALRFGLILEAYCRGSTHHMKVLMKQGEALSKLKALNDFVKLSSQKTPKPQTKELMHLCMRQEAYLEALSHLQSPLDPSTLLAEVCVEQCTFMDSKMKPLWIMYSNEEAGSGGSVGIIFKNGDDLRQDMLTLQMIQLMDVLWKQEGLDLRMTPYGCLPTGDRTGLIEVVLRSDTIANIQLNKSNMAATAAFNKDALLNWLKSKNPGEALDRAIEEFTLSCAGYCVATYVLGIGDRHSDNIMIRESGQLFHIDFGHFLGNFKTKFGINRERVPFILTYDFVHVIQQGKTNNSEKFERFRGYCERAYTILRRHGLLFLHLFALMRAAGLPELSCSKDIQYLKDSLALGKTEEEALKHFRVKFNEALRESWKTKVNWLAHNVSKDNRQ
UniProt P42338: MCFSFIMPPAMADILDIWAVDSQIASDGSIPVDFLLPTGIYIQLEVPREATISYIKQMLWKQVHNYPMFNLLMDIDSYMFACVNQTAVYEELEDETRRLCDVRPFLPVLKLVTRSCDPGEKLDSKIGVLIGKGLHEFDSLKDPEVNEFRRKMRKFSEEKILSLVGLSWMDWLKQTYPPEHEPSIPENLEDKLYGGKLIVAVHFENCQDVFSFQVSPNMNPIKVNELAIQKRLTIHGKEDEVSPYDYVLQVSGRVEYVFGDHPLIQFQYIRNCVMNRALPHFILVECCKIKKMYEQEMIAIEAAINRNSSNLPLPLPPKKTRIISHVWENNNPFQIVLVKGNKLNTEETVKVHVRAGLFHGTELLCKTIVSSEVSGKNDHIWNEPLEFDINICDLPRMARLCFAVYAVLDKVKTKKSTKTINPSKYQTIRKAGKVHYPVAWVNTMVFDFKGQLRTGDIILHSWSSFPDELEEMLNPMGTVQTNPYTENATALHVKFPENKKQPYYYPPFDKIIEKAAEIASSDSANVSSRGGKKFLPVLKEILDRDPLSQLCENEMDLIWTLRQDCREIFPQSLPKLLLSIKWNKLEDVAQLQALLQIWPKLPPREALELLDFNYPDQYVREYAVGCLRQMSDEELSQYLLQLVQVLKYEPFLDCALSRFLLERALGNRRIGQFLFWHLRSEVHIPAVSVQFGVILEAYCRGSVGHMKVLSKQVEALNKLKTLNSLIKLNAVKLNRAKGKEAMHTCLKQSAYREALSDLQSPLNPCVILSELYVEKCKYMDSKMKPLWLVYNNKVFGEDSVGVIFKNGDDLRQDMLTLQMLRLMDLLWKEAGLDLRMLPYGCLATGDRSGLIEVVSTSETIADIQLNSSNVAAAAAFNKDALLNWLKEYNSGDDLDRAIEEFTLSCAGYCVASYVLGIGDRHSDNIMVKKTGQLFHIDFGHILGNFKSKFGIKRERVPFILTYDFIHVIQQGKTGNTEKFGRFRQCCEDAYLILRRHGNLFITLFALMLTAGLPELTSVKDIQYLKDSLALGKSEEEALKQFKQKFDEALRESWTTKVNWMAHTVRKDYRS

These compounds were tested against PI3K (p110δ/p85α) (h) (Homo sapiens (Human), UniProt O00329) (assay: PI3K (p110δ/p85α) (h) non-radioactive HTRF kinase assay). Settings: performed at Millipore UK Ltd.
Format: biochemical
Protocol: (§1) The above assay procedure can be used to determine the IC50 for inhibition and/or the inhibition constant, Ki. […] The IC50 value is estimated by preparing a 10 point curve using a ½ log dilution series (for example, a typical curve may be prepared using the following compound concentrations: 10 μM, 3 μM, 1 μM, 0.3 μM, 0.1 μM, 0.03 μM, 0.01 μM, 0.003 μM, 0.001 μM and 0 μM).
PI3K (p110δ/p85α) (h) [Non-Radioactive Assay]
(§2) PI3K (p110δ/p85α) (h) is incubated in assay buffer containing 10 μM phosphatidylinositol-4, 5-bisphosphate and MgATP (concentration as required). The reaction is initiated by the addition of the MgATP mix. After incubation for 30 minutes at room temperature, the reaction is stopped by the addition of stop solution containing EDTA and biotinylated phosphatidylinositol-3,4,5-trisphosphate. Finally, detection buffer is added, which contains europium-labelled anti-GST monoclonal antibody, GST-tagged GRP1 PH domain and streptavidin-allophycocyanin. The plate is then read in timeresolved fluorescence mode and the homogenous time-resolved fluorescence (HTRF) signal is determined according to the formula HTRF=10000×(Em665 nm/Em620 nm).
(§3) The kinase assays described herein were performed at Millipore UK Ltd, Dundee Technology Park, Dundee DD2 1SW, UK.

SMILES	IC50 [nM]
CC[C@H](Nc1ncnc(N)c1-c1nc(C)no1)c1cc2cccc(Cl)c2c(=O)n1-c1ccccc1 [Ex. 3, (S)-3-(1-((6-amino-5-(3-methyl-1,2,4-oxadiazol-5-yl)pyrimidin-4-yl)amino)propyl)-8-chloro-2-phenylisoquinolin-1(2H)-one]	2
CC[C@H](Nc1ncnc(N)c1-c1nnc(C)o1)c1cc2cccc(Cl)c2c(=O)n1-c1ccccc1 [Ex. 5, (S)-3-(1-((6-amino-5-(5-methyl-1,3,4-oxadiazol-2-yl)pyrimidin-4-yl)amino)propyl)-8-chloro-2-phenylisoquinolin-1(2H)-one]	6
CC[C@H](Nc1ncnc(N)c1-c1nnc(C)o1)c1cc2cccc(C)c2c(=O)n1C1CC1 [Ex. 6, (S)-3-(1-((6-amino-5-(5-methyl-1,3,4-oxadiazol-2-yl)pyrimidin-4-yl)amino)propyl)-2-cyclopropyl-8-methylisoquinolin-1(2H)-one]	18
CC[C@H](Nc1ncnc(N)c1-c1ccon1)c1cc2cccc(F)c2c(=O)n1-c1ccccc1 [Ex. 19, (S)-3-(1-((6-amino-5-(isoxazol-3-yl)pyrimidin-4-yl)amino)propyl)-8-fluoro-2-phenylisoquinolin-1(2H)-one]	46
CC[C@H](Nc1ncnc(N)c1-c1noc(C)n1)c1cc2cccc(Cl)c2c(=O)n1C1CC1 [Ex. 21, (S)-3-(1-((6-amino-5-(5-methyl-1,2,4-oxadiazol-3-yl)pyrimidin-4-yl)amino)propyl)-8-chloro-2-cyclopropylisoquinolin-1(2H)-one]	15
Cc1noc(-c2c(N)ncnc2N[C@@H](C)c2cc3cccc(Cl)c3c(=O)n2-c2cccc(F)c2)n1 [Ex. 23, (S)-3-(1-((6-amino-5-(3-methyl-1,2,4-oxadiazol-5-yl)pyrimidin-4-yl)amino)ethyl)-8-chloro-2-(3-fluorophenyl)isoquinolin-1(2H)-one]	3

Each compound was assayed against PI3K (p110β/p85α) (h) (Homo sapiens (Human), UniProt P42338) (assay: PI3K (p110β/p85α) (h) non-radioactive HTRF kinase assay). Settings: performed at Millipore UK Ltd.
Format: biochemical
Protocol: as §1
PI3K (p110β/p85α) (h) [Non-Radioactive Assay]
as §2, with “([…])” for “(p110δ/p85α)”
as §3

SMILES	IC50 [nM]
Cc1noc(-c2c(N)ncnc2N[C@@H](C)c2cc3cccc(Cl)c3c(=O)n2-c2ccccc2)n1 [Ex. 8, (S)-3-(1-((6-amino-5-(3-methyl-1,2,4-oxadiazol-5-yl)pyrimidin-4-yl)amino)ethyl)-8-chloro-2-phenylisoquinolin-1(2H)-one]	33
Cc1nnc(-c2c(N)ncnc2N[C@@H](C)c2cc3cccc(Cl)c3c(=O)n2-c2ccccc2)o1 [Ex. 9, (S)-3-(1-((6-amino-5-(5-methyl-1,3,4-oxadiazol-2-yl)pyrimidin-4-yl)amino)ethyl)-8-chloro-2-phenylisoquinolin-1(2H)-one]	226
Cc1nc(-c2c(N)ncnc2N[C@@H](C)c2cc3cccc(Cl)c3c(=O)n2C2CC2)no1 [Ex. 11, (S)-3-(1-((6-amino-5-(5-methyl-1,2,4-oxadiazol-3-yl)pyrimidin-4-yl)amino)ethyl)-8-chloro-2-cyclopropylisoquinolin-1(2H)-one]	102
Cc1noc(-c2c(N)ncnc2N[C@@H](C)c2cc3cccc(Cl)c3c(=O)n2C2CC2)n1 [Ex. 24, (S)-3-(1-((6-amino-5-(3-methyl-1,2,4-oxadiazol-5-yl)pyrimidin-4-yl)amino)ethyl)-8-chloro-2-cyclopropylisoquinolin-1(2H)-one]	38
